From PubChem BioAssay
Statin myotox sup: suppressors of simvastatin-induced myotoxicity in C2C12 myotubes; ATP luminescence, 48 h; scaled: DMSO 0, geranylgeraniol control 100; rescue of ATP level, % at 7.49 µM; 330,000 tested, 0.78% active; AID 602340;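 active = mean ATP rescue above about 67%, or every replicate alone reaching that limit, limit read from the data, passing the limit was not always enough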;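 note: myotubes were challenged with 10 µM simvastatin during compound exposure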
PGC1a acetyl inh: lowers PGC1a acetylation signal in U2OS cells. 350,000 tested, 0.17% active. AID 651687. inhibition, % at 15.6 µM. AlphaScreen anti-acetyl-lysine; with virally co-expressed GCN5 acetyltransferase;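 active = every replicate shows inhibition of at least 40%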;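 note: 0% = neutral control wells and 100% = positive control wells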
FN deposit inh: fibronectin deposition inhibition. AH1F fibroblasts, Alexa488-fibronectin deposition fluorescence, overnight. 350,000 tested, 0.086% active. AID 743247. inhibition, % at 12.6 µM;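 active = mean inhibition across replicates of 30% or more, regardless of how many single replicates reach that level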;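 note: positive control wells lacked labelled fibronectin entirely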
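Assay system: AH1F fibroblast monolayer, labelled fibronectin deposition. Amount: 10000 cells per well. Also added: labelled fibronectin 24 nM. Compound: single-point pinned compound. Incubation: cell attachment 1 h, compound and FN exposure overnight. Detection: fluorescence after three HBSS washes, excitation 485 nm, emission 525 nm. Read-out: inhibition of fibronectin deposition signal.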
UUG fidelity: modulators of start codon recognition fidelity in yeast; AID 602363; activity score, % at 18.7 µM; S. cerevisiae UUG-firefly luciferase reporter, luminescence/redox ratio; 0.13% of 350,000 active;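 active = replicate mean at a twofold rise or more, about +100% in these data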;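 note: firefly luciferase made from a UUG start codon reports start codon fidelity; reporter light over untreated wells divided by growth signal over untreated wells; some hits fall short of that in this replicate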
hiPSC survival: enhancers of human iPSC single-cell survival | hiPSC single-cell survival, ATPlite luminescence; 100% = ROCK inhibitor wells, 0% = DMSO | survival enhancement, % at 20 µM | 360,000 tested, 0.044% active | AID 602274; in the data active = survival enhancement above about 18%;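 note: cells exposed to compounds for 16 hours before the ATP read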
Numbers without * were called inactive; / = no result given. Hits are enriched below; roughly 0.91% of the tested compounds scored in any of these assays.

No. | molecule | Statin myotox sup | PGC1a acetyl inh | FN deposit inh
1 | C[C@H](CO)N1C[C@H](C)[C@@H](CN(C)Cc2ccc(-c3ccccc3)cc2)Oc2ccc(NC(=O)Cc3cn(C)c4ccccc34)cc2CC1=O | 102* | -14 | /
2 | C[C@@H]1CN([C@@H](C)CO)C(=O)Cc2cc(NC(=O)Cc3cn(C)c4ccccc34)ccc2O[C@H]1CN(C)Cc1ccc(C(F)(F)F)cc1 | 104* | -8 | -7
3 | CC(C)NC(=O)N(C)C[C@H]1Oc2ncc(-c3cncnc3)cc2C(=O)N([C@@H](C)CO)C[C@H]1C | 2 | 1 | -1
4 | COc1ccc(C2=NOC(C(=O)NCc3cccs3)C2)cc1 (stereo unspecified) | 97* | -5 | 5
5 | COc1cc(C2=NOC(C(=O)NCc3cccs3)C2)cc(OC)c1OC (stereo unspecified) | 87* | 2 | /
6 | CCNc1nc(NCC)nc(Nn2cnnc2)n1 | 99* | 6 | /
7 | CCNc1nc(NC(C)(C)C)nc(N(CC)n2cnnc2)n1 | -3 | -8 | 5
8 | CC(=O)N(C)C[C@@H]1Oc2ncc(C#C[C@H](C)O)cc2C(=O)N([C@@H](C)CO)C[C@H]1C | 1 | 7 | 2
9 | C[C@@H]1CN([C@@H](C)CO)C(=O)c2cc(NS(=O)(=O)c3ccc(F)cc3)ccc2O[C@@H]1CN(C)C(=O)Nc1cccc2ccccc12 | / | 8 | /
10 | COC(=O)c1ccc(C2CC(=O)NC3=C2C(=O)CCC3)cc1 (stereo unspecified) | 114* | -8 | /
11 | CC(C)Oc1ccc(C2CC(=O)NC3=C2C(=O)CCC3)cc1 (stereo unspecified) | / | -15 | /
12 | COc1nc(OC)nc(N2CCC(C(=O)NCc3ccco3)CC2)n1 | 16 | -7 | -3
13 | Cc1cc(C)nc(N2CCC(C(=O)NCc3ccco3)CC2)n1 | 3 | 95* | 11
14 | O=C(O)c1ccccc1SC1CC(=O)N(c2cccc3ccccc23)C1=O (stereo unspecified) | -10 | -14 | 2
15 | CCN1C(=O)CC(Sc2ccccc2C(=O)O)C1=O (stereo unspecified) | 159* | -3 | -1

No. | UUG fidelity | hiPSC survival
1 | / | /
2 | -3 | /
3 | -12 | /
4 | 23 | -2
5 | 3 | 6
6 | -5 | -2
7 | -21 | 1
8 | -11 | /
9 | -20 | /
10 | -8 | -3
11 | -13 | 5
12 | -2 | -1
13 | -10 | 2
14 | -19 | 1
15 | -3 | 0

The listing continues.
No. | molecule | Statin myotox sup | PGC1a acetyl inh | FN deposit inh
16 | CC(=O)N1CCN(c2nc(-c3ccco3)c3c(c2C#N)CC(C)(C)SC3)CC1 | -3 | -3 | /
17 | COC(=O)c1ccc(CSc2nc(N3CCOCC3)c3c(c2C#N)CC(C)(C)OC3)o1 | 81* | -8 | /
18 | CC1(C)Cc2c(C#N)c(N3CCN(C(=O)c4ccco4)CC3)nc(-c3ccco3)c2CS1 | 121* | 3 | 5
19 | CC1(C)Cc2c(C#N)c(SCC(=O)c3ccccc3)nc(N3CCOCC3)c2CS1 | -26 | -2 | 48*
20 | CCCNC(=O)[C@@H]1[C@@H](CO)[C@@H]2Cn3c(cccc3=O)[C@@H]2N1C(=O)C1CC1 | / | 4 | /
21 | C[C@H](CO)N1C[C@H](C)[C@H](CN(C)Cc2ccc(C(=O)O)cc2)Oc2ccc(NC(=O)Nc3cccc4ccccc34)cc2C1=O | 9 | -3 | /
22 | COc1ccc(CN(C2CCCC2)S(=O)(=O)c2ccc(-n3cnnn3)cc2)cc1OC | 13 | -5 | 31*
23 | Cc1ccsc1C(=O)OCC(=O)Nc1sccc1C(N)=O | -13 | 6 | /
24 | Cc1ccsc1C(=O)OCC(=O)NCCNC(=O)COC(=O)c1sccc1C | 10 | / | 1
25 | C[C@@H]1CN([C@H](C)CO)C(=O)c2ccccc2-c2ccccc2CO[C@H]1CN(C)C(=O)c1ccc(F)cc1 | / | 18 | 3
26 | CCCCCCC(=O)N1CCN(c2cc3c(cc2F)c(=O)c(C(=O)O)cn3CC)CC1 | 153* | 0 | /
27 | CCn1cc(C(=O)NCc2cccc(F)c2)c(=O)c2cc(F)c(N3CCN(C(=O)c4ccco4)CC3)cc21 | 79* | 3 | /
28 | Cc1ccc(S(=O)(=O)N[C@H](C(=O)NCCN=[N+]=[N-])C(C)C)cc1 | / | -1 | /
29 | Cc1ccc(C)c(NC(=O)CSc2nnc(C3CCCCC3)o2)c1 | 71* | / | 9
30 | Cc1ccc(S(=O)(=O)N(C)C[C@H]2Oc3ccc(NC(=O)Nc4ccc5c(c4)OCO5)cc3C(=O)N([C@@H](C)CO)C[C@@H]2C)cc1 | -37 | 0 | /

No. | UUG fidelity | hiPSC survival
16 | 18 | 0
17 | 12 | 5
18 | -13 | -2
19 | 3 | 20*
20 | / | /
21 | 2 | /
22 | -3 | 8
23 | / | 20*
24 | -9 | 0
25 | / | /
26 | -18 | 1
27 | -3 | 0
28 | / | /
29 | -5 | 0
30 | 5 | /

(list continues)
No. | molecule | Statin myotox sup | PGC1a acetyl inh | FN deposit inh
31 | Cc1cccc(-c2nsc(SCC(=O)N3CCCC3)n2)c1 | / | 95* | -9
32 | O=C(CSc1nc(-c2ccccc2)ns1)N1CCOCC1 | / | / | -6
33 | O=C(Nc1cccc2ccccc12)C12CC3CC(C1)CC(n1cnc([N+](=O)[O-])n1)(C3)C2 | 69* | -1 | /
34 | COC(=O)c1ccccc1NC(=O)C12CC3CC(C1)CC(n1cnc(Cl)n1)(C3)C2 | 1 | -12 | -7
35 | CN(C)C(=O)C[C@@H]1C[C@H]2c3cc(NC(=O)Nc4ccccc4)ccc3O[C@H]2[C@H](CO)O1 | 4 | -4 | -1
36 | COC(=O)c1ccc(/C=C2/SC(=S)N(CCC(=O)N3CCOCC3)C2=O)cc1 | 71* | -1 | 5
37 | O=C(Nc1ccc(F)cc1)N[C@@H]1CC[C@@H](CCNS(=O)(=O)c2cccc(Cl)c2)O[C@H]1CO | -14 | -2 | 4
38 | Cc1cc(C)nc(N(C#N)Cc2ccccc2Cl)n1 | 69* | 1 | -3
39 | Cc1cc(C)nc(N(C#N)Cc2ccccc2C)n1 | / | -9 | -3
40 | Cc1noc(C)c1NC(=O)Nc1cccc2c1O[C@@H](CN(C)Cc1ccc(Oc3ccccc3)cc1)[C@H](C)CN([C@@H](C)CO)C2=O | / | -14 | -3
41 | CN(C)C(=O)C[C@H]1CC[C@@H]2[C@@H](COc3ccc(NC(=O)C4CCC4)cc3C(=O)N2C)O1 | / | 10 | -2
42 | O=S1(=O)CCN2C(c3ccco3)=CSC2=N1 | 104* | 4 | /
43 | O=S1(=O)CCN2C(c3ccc4c(c3)CCCC4)=CSC2=N1 | 6 | -11 | /
44 | Fc1ccccc1OCCCN1CCOCC1 | 169* | -1 | 4
45 | c1ccc(-c2ccccc2OCCCN2CCOCC2)cc1 | / | / | -9
46 | CC1(C)CC[C@]2(C(=O)O[C@@H]3O[C@H](CO)[C@@H](O)[C@H](O)[C@H]3O)CC[C@]3(C)C(=CCC4[C@@]5(C)CC[C@H](O[C@@H]6O[C@H](C(=O)O)[C@@H](O[C@H]7OC[C@@H](O)[C@@H](O)[C@@H]7O)[C@H](O)[C@H]6O)C(C)(C)C5CC[C@]43C)[C@@H]2C1 (stereo partly specified) | -11 | / | -7

No. | UUG fidelity | hiPSC survival
31 | -28 | 0
32 | / | 0
33 | -9 | 4
34 | -9 | 1
35 | 3 | /
36 | 3 | 0
37 | -4 | /
38 | -35 | -2
39 | -8 | 3
40 | 2 | /
41 | / | /
42 | -1 | -2
43 | -30 | 1
44 | 1 | -2
45 | / | -3
46 | 26 | 4

A second format for part of the listing above.
[37] O=C(Nc1ccc(F)cc1)N[C@@H]1CC[C@@H](CCNS(=O)(=O)c2cccc(Cl)c2)O[C@H]1CO
  Statin myotox sup = -14	PGC1a acetyl inh = -2	FN deposit inh = 4	UUG fidelity = -4	hiPSC survival = /
[38] Cc1cc(C)nc(N(C#N)Cc2ccccc2Cl)n1
  Statin myotox sup = 69*	PGC1a acetyl inh = 1	FN deposit inh = -3	UUG fidelity = -35	hiPSC survival = -2
[39] Cc1cc(C)nc(N(C#N)Cc2ccccc2C)n1
  Statin myotox sup = /	PGC1a acetyl inh = -9	FN deposit inh = -3	UUG fidelity = -8	hiPSC survival = 3
[40] Cc1noc(C)c1NC(=O)Nc1cccc2c1O[C@@H](CN(C)Cc1ccc(Oc3ccccc3)cc1)[C@H](C)CN([C@@H](C)CO)C2=O
  Statin myotox sup = /	PGC1a acetyl inh = -14	FN deposit inh = -3	UUG fidelity = 2	hiPSC survival = /
